In article PMC5066155 (ACS Medicinal Chemistry Letters, 2016):

Molecular target: T1, sPLA2-IIa (Homo sapiens, UniProt P14555)
T1 sequence (P14555 21-144): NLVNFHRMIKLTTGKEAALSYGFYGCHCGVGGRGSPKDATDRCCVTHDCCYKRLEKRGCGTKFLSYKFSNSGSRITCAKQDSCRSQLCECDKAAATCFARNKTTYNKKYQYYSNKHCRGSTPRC
Test: Ligand efficiency / ligand lipophilicity efficiency from sPLA2-IIa IC50

Which results are given for `CCc1c(C(=O)C(N)=O)c2c(OCC(=O)O)cccc2n1Cc1ccccc1` [varespladib]?
LLE (pIC50 (sPLA2-IIa) – logD): 7.2; LE (−RT ln(sPLA2-IIa IC50)/heavy atom count): 0.37 kcal/mol/HAC
